Test results taken from PubChem BioAssay AID624504 (Sanford-Burnham Center for Chemical Genomics, 2012).
The entries are a selection whose mix differs from that of the whole data set. The source made the active and inactive calls. No stated cut-off is given here; in the data, active means inhibition above about 22%; inactive means the rest.

Assay: fluorescence retest of MPTP screen hits in isolated mitochondria, single concentration (AID 624504);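 further: 0% = DMSO vehicle and 100% = positive control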
Conditions: membrane potential, Rhodamine 123 fluorescence, at 10 µM, stronger effect = higher value

SMILES	inhibition
O=[N+]([O-])c1cc([N+](=O)[O-])c(Nc2ccc(Cl)cc2)c([N+](=O)[O-])c1	active: 78.1%
O=[N+]([O-])c1cc([N+](=O)[O-])c(Nc2cccnc2)c([N+](=O)[O-])c1	active: 95.2%
